Assay results from patent US10112937B2, “P2X7 modulators and methods of use” (Janssen Pharmaceutica NV, priority 2013, dated 2018).

The chains behind the UniProt entries cited, without tags or fusion partners. Where a name states a change or a piece, a line headed by the entry shows the natural chain unless it says otherwise.
UniProt Q64663: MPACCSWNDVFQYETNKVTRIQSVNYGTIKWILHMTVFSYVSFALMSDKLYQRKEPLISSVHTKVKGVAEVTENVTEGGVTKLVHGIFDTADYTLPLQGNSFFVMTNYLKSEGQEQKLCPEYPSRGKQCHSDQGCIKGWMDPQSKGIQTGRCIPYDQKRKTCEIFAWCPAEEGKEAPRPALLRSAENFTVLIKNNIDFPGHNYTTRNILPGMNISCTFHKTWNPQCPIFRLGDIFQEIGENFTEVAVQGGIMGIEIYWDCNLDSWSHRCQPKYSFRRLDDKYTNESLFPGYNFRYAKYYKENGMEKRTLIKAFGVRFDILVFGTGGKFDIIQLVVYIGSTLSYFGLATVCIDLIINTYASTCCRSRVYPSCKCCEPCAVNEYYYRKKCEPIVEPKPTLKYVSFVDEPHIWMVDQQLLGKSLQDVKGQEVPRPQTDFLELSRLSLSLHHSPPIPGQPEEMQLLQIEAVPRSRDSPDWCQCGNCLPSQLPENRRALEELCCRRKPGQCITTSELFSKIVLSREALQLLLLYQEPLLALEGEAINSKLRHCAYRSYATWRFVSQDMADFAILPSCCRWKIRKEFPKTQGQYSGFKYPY
UniProt Q99572: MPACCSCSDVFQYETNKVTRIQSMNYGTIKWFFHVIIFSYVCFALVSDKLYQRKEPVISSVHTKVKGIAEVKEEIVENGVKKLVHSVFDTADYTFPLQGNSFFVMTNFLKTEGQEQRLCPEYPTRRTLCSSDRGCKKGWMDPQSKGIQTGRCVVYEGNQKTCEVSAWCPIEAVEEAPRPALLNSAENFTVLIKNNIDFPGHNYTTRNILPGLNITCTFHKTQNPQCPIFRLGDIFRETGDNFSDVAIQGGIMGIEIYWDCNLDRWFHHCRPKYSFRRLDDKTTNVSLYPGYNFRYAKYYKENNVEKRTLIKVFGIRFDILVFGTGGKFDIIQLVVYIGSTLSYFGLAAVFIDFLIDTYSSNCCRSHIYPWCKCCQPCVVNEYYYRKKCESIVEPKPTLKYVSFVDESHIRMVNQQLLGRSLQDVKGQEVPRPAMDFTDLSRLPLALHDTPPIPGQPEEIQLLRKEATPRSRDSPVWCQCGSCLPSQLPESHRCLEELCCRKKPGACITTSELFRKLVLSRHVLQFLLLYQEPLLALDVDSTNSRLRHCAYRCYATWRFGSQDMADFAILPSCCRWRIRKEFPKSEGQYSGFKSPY

What was measured:
[1] = biological target: rat P2X7 (Rattus norvegicus (Rat), UniProt Q64663); assay: Radioligand binding ([3H]A-804598), rat P2X7-1321N1 cell membranes; conditions: rat P2X7-1321N1 membranes, tritiated A-804598
[2] = biological target: human P2X7 (Homo sapiens (Human), UniProt Q99572); assay: Radioligand binding ([3H]A-804598), human P2X7-1321N1 cell membranes; conditions: human P2X7-1321N1 membranes, tritiated A-804598

Ki [1]: 11.5 nM
Ki [2]: 3.5 nM
SMILES: C[C@H]1c2nnn(-c3ncc(F)cn3)c2CCN1C(=O)c1cccc(C(F)(F)F)c1F (single isomer, unassigned) [Example 178, (S*)-(2-fluoro-3-(trifluoromethyl)phenyl)(1-(5-fluoropyrimidin-2-yl)-4-methyl-6,7-dihydro-1H-[1,2,3]triazolo[4,5-c]pyridin-5(4H)-yl)methanone]
